Measured values from PubChem BioAssay (NCI).
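Following 48 hours of exposure in 96-well plates, responses at five concentrations were used to interpolate endpoints linearly. GI50 marks 50% less growth. TGI marks complete inhibition of growth.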

What was measured:
Assay in all cases: NCI-60 cell line screen, 48 h
[1] = test system: SN12C renal
[2] = test system: TK-10 renal
[3] = test system: SR leukemia
[4] = test system: SNB-78 CNS
[5] = test system: RXF 393 renal
[6] = test system: OVCAR-3 ovarian
[7] = test system: HOP-92 NSCLC
[8] = test system: M19-MEL melanoma
[9] = test system: HCT-15 colon
[10] = test system: KM12 colon
[11] = test system: CAKI-1 renal
[12] = test system: UO-31 renal
[13] = test system: NCI-H522 lung
[14] = test system: SK-MEL-2 melanoma
[15] = test system: HCT-116 colon
[16] = test system: MDA-MB-231 breast
[17] = test system: BT-549 breast
[18] = test system: PC-3 prostate
[19] = test system: COLO 205 colon
[20] = test system: T-47D breast
[21] = test system: UACC-257 melanoma
[22] = test system: ACHN renal
[23] = test system: NCI-H226 lung
[24] = test system: EKVX NSCLC
[25] = test system: HL-60(TB) leukemia
[26] = test system: DU-145 prostate
[27] = test system: OVCAR-8 ovarian
[28] = test system: NCI-H23 lung
[29] = test system: 786-0 renal
[30] = test system: MDA-MB-435
[31] = test system: SF-295 CNS
[32] = test system: OVCAR-4 ovarian
[33] = test system: RPMI-8226 leukemia
[34] = test system: MDA-N
[35] = test system: LOX IMVI melanoma
[36] = test system: M14 melanoma
[37] = test system: NCI/ADR-RES ovarian
[38] = test system: LXFL 529 NSCLC
[39] = test system: NCI-H460 lung
[40] = test system: U251 CNS
[41] = test system: OVCAR-5 ovarian
[42] = test system: DLD-1 colon
[43] = test system: SF-539 CNS
[44] = test system: SNB-19 CNS
[45] = test system: MALME-3M melanoma
[46] = test system: SNB-75 CNS
[47] = test system: SK-MEL-5 melanoma
[48] = test system: DMS 273 small cell lung
[49] = test system: NCI-H322M lung
[50] = test system: SW-620 colon
[51] = test system: A498 renal
[52] = test system: IGROV1 ovarian
[53] = test system: KM20L2 colon
[54] = test system: MOLT-4 leukemia
[55] = test system: SK-MEL-28 melanoma
[56] = test system: MCF7 breast
[57] = test system: A549 NSCLC
[58] = test system: K-562 leukemia
[59] = test system: HCC-2998 colon
[60] = test system: CCRF-CEM leukemia
[61] = test system: HS 578T breast
[62] = test system: HT29 colon
[63] = test system: SF-268 CNS
[64] = test system: HOP-62 NSCLC
[65] = test system: SK-OV-3 ovarian
[66] = test system: UACC-62 melanoma

Structure (SMILES): O=[N+]([O-])OCCOc1ccc([As](=O)(O)O)cc1[N+](=O)[O-]
- GI50 [1]: > 100 µM
- TGI [1]: > 100 µM
- GI50 [2]: > 100 µM
- TGI [2]: > 100 µM
- GI50 [3]: > 100 µM
- TGI [3]: > 100 µM
- GI50 [4]: > 100 µM
- TGI [4]: > 100 µM
- GI50 [5]: > 100 µM
- TGI [5]: > 100 µM
- GI50 [6]: > 100 µM
- TGI [6]: > 100 µM
- GI50 [7]: > 100 µM
- TGI [7]: > 100 µM
- GI50 [8]: > 100 µM
- TGI [8]: > 100 µM
- GI50 [9]: > 100 µM
- TGI [9]: > 100 µM
- GI50 [10]: > 100 µM
- TGI [10]: > 100 µM
- GI50 [11]: > 100 µM
- TGI [11]: > 100 µM
- GI50 [12]: > 100 µM
- TGI [12]: > 100 µM
- GI50 [13]: 14.5 µM
- TGI [13]: > 100 µM
- GI50 [14]: > 100 µM
- TGI [14]: > 100 µM
- GI50 [15]: > 100 µM
- TGI [15]: > 100 µM
- GI50 [16]: > 100 µM
- TGI [16]: > 100 µM
- GI50 [17]: > 100 µM
- TGI [17]: > 100 µM
- GI50 [18]: > 100 µM
- TGI [18]: > 100 µM
- GI50 [19]: > 100 µM
- TGI [19]: > 100 µM
- GI50 [20]: > 100 µM
- TGI [20]: > 100 µM
- GI50 [21]: > 100 µM
- TGI [21]: > 100 µM
- GI50 [22]: > 100 µM
- TGI [22]: > 100 µM
- GI50 [23]: > 100 µM
- TGI [23]: > 100 µM
- GI50 [24]: > 100 µM
- TGI [24]: > 100 µM
- GI50 [25]: > 100 µM
- TGI [25]: > 100 µM
- GI50 [26]: > 100 µM
- TGI [26]: > 100 µM
- GI50 [27]: > 100 µM
- TGI [27]: > 100 µM
- GI50 [28]: > 100 µM
- TGI [28]: > 100 µM
- GI50 [29]: > 100 µM
- TGI [29]: > 100 µM
- GI50 [30]: > 100 µM
- TGI [30]: > 100 µM
- GI50 [31]: > 100 µM
- TGI [31]: > 100 µM
- GI50 [32]: > 100 µM
- TGI [32]: > 100 µM
- GI50 [33]: > 100 µM
- TGI [33]: > 100 µM
- GI50 [34]: > 100 µM
- TGI [34]: > 100 µM
- GI50 [35]: > 100 µM
- TGI [35]: > 100 µM
- GI50 [36]: > 100 µM
- TGI [36]: > 100 µM
- GI50 [37]: > 100 µM
- TGI [37]: > 100 µM
- GI50 [38]: > 100 µM
- TGI [38]: > 100 µM
- GI50 [39]: > 100 µM
- TGI [39]: > 100 µM
- GI50 [40]: > 100 µM
- TGI [40]: > 100 µM
- GI50 [41]: > 100 µM
- TGI [41]: > 100 µM
- GI50 [42]: > 100 µM
- TGI [42]: > 100 µM
- GI50 [43]: > 100 µM
- TGI [43]: > 100 µM
- GI50 [44]: > 100 µM
- TGI [44]: > 100 µM
- GI50 [45]: 18.2 µM
- TGI [45]: > 100 µM
- GI50 [46]: 64.1 µM
- TGI [46]: > 100 µM
- GI50 [47]: > 100 µM
- TGI [47]: > 100 µM
- GI50 [48]: > 100 µM
- TGI [48]: > 100 µM
- GI50 [49]: > 100 µM
- TGI [49]: > 100 µM
- GI50 [50]: > 100 µM
- TGI [50]: > 100 µM
- GI50 [51]: > 100 µM
- TGI [51]: > 100 µM
- GI50 [52]: > 100 µM
- TGI [52]: > 100 µM
- GI50 [53]: > 100 µM
- TGI [53]: > 100 µM
- GI50 [54]: > 100 µM
- TGI [54]: > 100 µM
- GI50 [55]: > 100 µM
- TGI [55]: > 100 µM
- GI50 [56]: > 100 µM
- TGI [56]: > 100 µM
- GI50 [57]: > 100 µM
- TGI [57]: > 100 µM
- GI50 [58]: > 100 µM
- TGI [58]: > 100 µM
- GI50 [59]: > 100 µM
- TGI [59]: > 100 µM
- GI50 [60]: > 100 µM
- TGI [60]: > 100 µM
- GI50 [61]: > 100 µM
- TGI [61]: > 100 µM
- GI50 [62]: > 100 µM
- TGI [62]: > 100 µM
- GI50 [63]: > 100 µM
- TGI [63]: > 100 µM
- GI50 [64]: > 100 µM
- TGI [64]: > 100 µM
- GI50 [65]: > 100 µM
- TGI [65]: > 100 µM
- GI50 [66]: > 100 µM
- TGI [66]: > 100 µM
